This note sets out measurements from ChEMBL document CHEMBL4020831, “Discovery of GDC-0853: A Potent, Selective, and Noncovalent Bruton's Tyrosine Kinase Inhibitor in Early Clinical Development” (J Med Chem, 2018).

The chains behind the UniProt entries cited, without tags or fusion partners. Where a name states a change or a piece, a line headed by the entry shows the natural chain unless it says otherwise.
UniProt Q06187: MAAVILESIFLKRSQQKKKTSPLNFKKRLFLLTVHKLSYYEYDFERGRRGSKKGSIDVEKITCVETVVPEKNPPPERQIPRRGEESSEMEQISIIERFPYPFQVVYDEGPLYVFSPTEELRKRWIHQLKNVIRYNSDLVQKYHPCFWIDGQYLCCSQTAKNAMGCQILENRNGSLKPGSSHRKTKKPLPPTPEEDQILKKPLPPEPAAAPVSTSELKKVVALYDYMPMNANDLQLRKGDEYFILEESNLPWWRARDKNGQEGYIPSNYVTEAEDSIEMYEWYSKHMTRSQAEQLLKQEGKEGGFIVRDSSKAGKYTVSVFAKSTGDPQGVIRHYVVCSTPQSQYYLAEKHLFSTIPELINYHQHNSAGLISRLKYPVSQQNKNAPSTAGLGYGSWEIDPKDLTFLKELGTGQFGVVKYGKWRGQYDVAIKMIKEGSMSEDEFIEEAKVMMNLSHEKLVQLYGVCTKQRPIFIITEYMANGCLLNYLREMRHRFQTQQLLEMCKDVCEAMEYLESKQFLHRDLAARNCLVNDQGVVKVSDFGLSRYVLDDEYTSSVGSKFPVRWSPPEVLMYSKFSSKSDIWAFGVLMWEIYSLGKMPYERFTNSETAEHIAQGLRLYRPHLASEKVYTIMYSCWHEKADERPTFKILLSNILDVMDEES

Assay [1] deals with T1, Tyrosine-protein kinase BTK (Homo sapiens, UniProt Q06187).
Assay [2] addresses T1, Tyrosine-protein kinase BTK. The assay is described as follows: Inhibition of human recombinant C-terminal polyhistidine tagged BTK (1 to 659 residues)-mediated synthetic peptide substrate phosphorylation expressed in baculovirus-infected insect cells.

The term IC50 denotes the concentration that inhibits the measured activity by half. For the compound `CN1CCN(c2ccc(Nc3cc(-c4cc(F)cc(N5CCn6c(cc7c6CCCC7)C5=O)c4CO)cn(C)c3=O)nc2)CC1`, the IC50 in assay [1] came to 27.6 nM.

In general, Ki refers to a dissociation constant, usually derived from enzyme kinetics or from competition with a known ligand. `Cn1cc(-c2cc(F)cc(N3CCn4c(cc5c4CCCC5)C3=O)c2CO)cc(Nc2ccc(N3CCN(C4COC4)CC3)cn2)c1=O`: it took 36.5 nM to reach half-maximal inhibition in assay [1] (IC50). Further, in assay [2], the Ki amounted to 0.69 nM.
